Rows were chosen to be rich in hits. Some 2.2% of all compounds tested hit in one or more screens of this group.
Nrf2 ARE act: Nrf2 pathway activation. actives 0.31% (n = 410,000). AREc32 ARE-luciferase reporter (MCF7-derived line), luminescence, 24 h. Potency, µM (top dose mostly 46.1 µM), without a hit: top-dose activation, usual class: activators. AID 624171; also: potency is read from the fitted curve at half-maximal effect; % of control where 0% means no effect; nearly all actives have a fitted effect of over 65% in size
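Reporter line AREc32 (ARE-Fluc), seeded overnight in OPTI-MEM with 5% FBS; compound pin-transferred, 24 hr at 37 deg C, 5% CO2; luminescent read-out.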
PI4K2A block: PI4K2A (human) kinase inhibition. AID 1346378. purified PI4K2A, ADP-Glo luminescence, 1 h; stronger effect = lower value. activity change, negative = inhibition, % at 76.9 µM. Q9BTU6. actives 0.13% (n = 420,000); in the data active = activity change below about -50%; inconclusive = mostly about -30% to -49%;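 also: -100% = wells without enzyme as full effect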
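PI4K2A activity was measured by ADP-Glo luminescence: enzyme (4 ug/mL stock) and phosphatidylinositol (1.2 mM stock) in Tris pH 7.5/MgCl2/EGTA/Triton X-100 buffer were reacted with ATP (300 microM stock) for one hour at ambient temperature.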
Nrf2 block: inhibitors of Nrf2 signaling; actives 2.1% (n = 360,000); A549 ARE-Fluc reporter, luciferase luminescence, 18-24 h; Potency, µM (series often up to 46 µM), for the others: top-dose activity change, negative = inhibition, most hits filed as inhibitors; also: potency is read from the fitted curve at half-maximal effect; % is scaled to controls: 0 for no effect and ±100 for the full control effect; nearly all actives have a fitted effect of over 60% in size
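Nrf2 activity is the BugLite luminescence, read 15 min after reagent at room temperature, following CellTiter-Fluor cytotoxicity readout (30 min, 37C). Compound titrations were applied for 18-24 h to 5000 A549 ARE_Fluc cells/well in 5% FBS OPTI-MEM.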
A549 tox: kills or reduces viability of A549 cells in Nrf2 counter-screen | actives 0.16% (n = 390,000) | A549 ARE-Fluc cells, CellTiter-Fluor viability, 18-24 h | Potency, µM (top dose mostly 46 µM), inactives show at the top dose activity change, negative = cytotoxicity, hits mostly inhibitors; also: potency is read from the fitted curve at half-maximal effect; % is scaled to controls: 0 for no effect and ±100 for the full control effect
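A549 ARE-Fluc cells in 5% FBS OPTI-MEM, 5000 cells/well, rested 2 h then exposed to compounds in concentration-response for 18-24 h at 37 °C. Viability by CellTiter-Fluor fluorescence (Ex 405/Em 525) after 30 min; luciferase luminescence (BugLite, 15 min, RT) read afterwards.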
GALK inhibitor: blocks human galactokinase activity; P51570; Purified GALK, Kinase-Glo residual ATP luminescence; Potency, µM (series often up to 57.5 µM), for inactives: top-dose activity change, negative = inhibition, hits mostly inhibitors; actives 0.007% (n = 270,000); AID 1868; also: potency is read from the fitted curve at half-maximal effect; % is scaled to controls: 0 for no effect and ±100 for the full control effect
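Compounds were pin-transferred into ATP buffer (35 uM final), then GALK plus galactose (5 nM, 100 uM final) was added. After 1 h at room temperature, Kinase-Glo Plus was added and luminescence read after 10 min.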
miR-21 reporter: miR-21 reporter, rising signal | HeLa miR-21 FLuc reporter, luciferase, 48 h | Potency, µM (top dose mostly 38.3 µM), inactives show at the top dose reporter change, positive = more light | 340,000 tested, under 10 active | AID 2288; active = well fitted rising curve with a large enough effect; inconclusive = small, poorly fitted or top-dose-only effect; inactive = no such curve, though single readings can be large or run the other way;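 further: % of control where 0% means no effect; miR-21 action dims this reporter so a rising signal means less miR-21 action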
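HeLa cells endogenously expressing miR-21, stably carrying CMV-driven firefly luciferase with a downstream miR-21 binding site, 2000 cells/well. Titrations up to approximately 40 uM, 48 hours; luciferase luminescence read.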
* hit, by the source's call. Unless noted, calls follow the shape of the dose curve; as a rule, active = well fitted curve in the direction sought with a large enough effect; inconclusive = small, poorly fitted or top-dose-only effect, or another doubt; inactive = no such curve, though single readings can be large; an effect the other way counts as inactive or inconclusive.

What do the screens show for `CCC(=O)NC(c1cc(Cl)c2cccnc2c1O)c1cccn1C` (stereo not drawn)?
Nrf2 block: 26µM*; A549 tox: -11%

Results for CC(=O)NC(c1cc(Cl)c2cccnc2c1O)C(C)C (stereo not drawn) ?
Nrf2 ARE act: 0%; PI4K2A block: -6; Nrf2 block: 21µM*; A549 tox: -12%

How did Cc1nc(-c2coc3cc(O)c(C)cc3c2=O)cs1 do in these assays?
Nrf2 ARE act: 2%; PI4K2A block: inconclusive; Nrf2 block: 10µM*; A549 tox: -7%; GALK inhibitor: 2%; miR-21 reporter: 3%

How did Cc1cc(NC(=O)c2ccc(Cl)c(Cl)c2)ccc1-c1cc2ccccc2oc1=O do in these assays?
Nrf2 ARE act: 0%; PI4K2A block: 1; Nrf2 block: -18%; A549 tox: -1%; miR-21 reporter: -2%

How did COc1ccc(C(=O)Nc2cccc(-c3nc4ncccc4o3)c2C)cc1OC do in these assays?
Nrf2 ARE act: 0%; PI4K2A block: 1; Nrf2 block: 18µM*; A549 tox: inconclusive; GALK inhibitor: -1%; miR-21 reporter: 0%

What do the screens show for `COc1cccc(C(=O)Nc2cccc(-c3nc4ncccc4o3)c2C)c1`?
Nrf2 ARE act: -1%; PI4K2A block: -13; Nrf2 block: inconclusive; A549 tox: -3%; GALK inhibitor: -4%; miR-21 reporter: -2%

Results for COc1ccc(C(=O)Nc2ccc(-c3cc4ccccc4oc3=O)c(C)c2)cc1OC ?
Nrf2 ARE act: 0%; PI4K2A block: 2; Nrf2 block: 13µM*; A549 tox: -9%; miR-21 reporter: 29%

How did C=CCn1c(SCC(=O)OC(C)C)nnc1-c1ccc(C)cc1 do in these assays?
PI4K2A block: -1

What do the screens show for `COC(=O)CC[C@H](/C=C/C(=O)OC(C)(C)C)Sc1ccc(C(C)(C)C)cc1`?
PI4K2A block: -3

How did O=C(OCC(COC(=O)c1cccnc1)(COC(=O)c1cccnc1)COC(=O)c1cccnc1)c1cccnc1 do in these assays?
PI4K2A block: -2

What do the screens show for `O=C(CN1CCCc2ccccc21)NCc1ccccc1F`?
PI4K2A block: -2

What do the screens show for `CCN(CC)S(=O)(=O)c1ccc(N2CCN(CCO)CC2)nc1`?
Nrf2 ARE act: 0%; PI4K2A block: 0; Nrf2 block: inconclusive; A549 tox: 0%; GALK inhibitor: 2%; miR-21 reporter: -10%

What do the screens show for `CCN(CC)S(=O)(=O)c1ccc(N2CCN(c3ccccc3O)CC2)nc1`?
Nrf2 ARE act: 2%; PI4K2A block: -1; Nrf2 block: 18µM*; A549 tox: -1%; GALK inhibitor: -2%; miR-21 reporter: 18%

How did CCOC(=O)N1CCN(c2ccc(S(=O)(=O)N(Cc3ccccc3)Cc3ccccc3)cn2)CC1 do in these assays?
Nrf2 ARE act: 2%; PI4K2A block: -1; Nrf2 block: 16µM*; A549 tox: -16%; GALK inhibitor: 1%; miR-21 reporter: 1%

How did O=C(NCCO)[C@H](Cc1ccccc1)NC1(C(=O)NCCc2c[nH]c3ccccc23)CCCCC1 do in these assays?
PI4K2A block: 0

What do the screens show for `CCC(=NNC(=O)c1ccc2c(c1)nc(C)n2CC)c1cc(F)ccc1O`?
Nrf2 ARE act: 0%; PI4K2A block: 5; Nrf2 block: 6.5µM*; A549 tox: -7%

How did O=C(Nc1ccc(OC(F)F)c(Cl)c1)Nc1ccc2c(c1)OCO2 do in these assays?
Nrf2 ARE act: -1%; PI4K2A block: -1; Nrf2 block: inconclusive; A549 tox: -25%; GALK inhibitor: -8%; miR-21 reporter: 3%

What do the screens show for `O=C(Nc1ccc([N+](=O)[O-])cc1)Nc1ccc(OC(F)F)c(Cl)c1`?
Nrf2 ARE act: -1%; PI4K2A block: -1; Nrf2 block: 21µM*; A549 tox: inconclusive; miR-21 reporter: inconclusive

Compounds above that have an aryl thioether with sulfur outside any ring, in the order listed:
How did C=CCn1c(SCC(=O)OC(C)C)nnc1-c1ccc(C)cc1 do in these assays?
PI4K2A block: -1

What do the screens show for `COC(=O)CC[C@H](/C=C/C(=O)OC(C)(C)C)Sc1ccc(C(C)(C)C)cc1`?
PI4K2A block: -3

Source: PubChem BioAssay (National Center for Advancing Translational Sciences (NCATS))
